Data on three molecules can be found in patent US4548938A, “5-H-1,3,4-thiadiazolo[3,2-a]pyrimidin-5-one compounds” (Janssen Pharmaceutica N.V., priority 1985, dated 1985).

The subject of the test is apomorphine-induced emesis. In words: apomorphine test in dogs (APO-dog). Type of test: in vivo. The note with it: s.c.; beagle dogs; apomorphine 0.31 mg/kg s.c. 1 hour after compound; protection from emesis.
For `Cc1nc2scc(C)n2c(=O)c1CCN1CCC(C(=O)c2ccc(F)cc2)CC1` [compound 4, 6-[2-[4-(4-fluorobenzoyl)-1-piperidinyl]ethyl]-3,7-dimethyl-5H-thiazolo[3,2-a]pyrimidin-5-one], the “ED50 (APO)-dog” value was found to be 0.06 mg/kg.
For `Cc1nc2sc3ccccc3n2c(=O)c1CCN1CCC(c2c[nH]c3ccccc23)CC1` [compound 13, 3-[2-[4-(1H-indol-3-yl)-1-piperidinyl]ethyl]-2-methyl-4H-pyrimido[2,1-b]benzothiazol-4-one] the value was 0.06 mg/kg.
As to `Cc1nn2c(=O)c(CCN3CCC(c4c[nH]c5ccccc45)CC3)c(C)nc2s1` [compound 14, 6-[2-[4-(1H-indol-3-yl)-1-piperidinyl]ethyl]-2,7-dimethyl-5H-1,3,4-thiadiazolo[3,2-a]pyrimidin-5-one], the “ED50 (APO)-dog” value stood at 0.06 mg/kg.
